Assay results taken from PubChem BioAssay (NCI).
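Following 48 hours of exposure in 96-well plates, responses at five concentrations were used to interpolate endpoints linearly. The concentration for 50% growth inhibition is given as GI50. TGI is the concentration that stops growth completely.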

Experiments:
Assay in all cases: growth of human tumour cells (NCI), 48 h
T-47D breast = test system: T-47D breast
NCI-H226 lung = test system: NCI-H226 lung
SW-620 colon = test system: SW-620 colon
HCT-116 colon = test system: HCT-116 colon
A549 NSCLC = test system: A549 NSCLC
PC-3 prostate = test system: PC-3 prostate
U251 CNS = test system: U251 CNS
UO-31 renal = test system: UO-31 renal
786-0 renal = test system: 786-0 renal
KM12 colon = test system: KM12 colon
SNB-75 CNS = test system: SNB-75 CNS
NCI-H23 lung = test system: NCI-H23 lung
BT-549 breast = test system: BT-549 breast
MDA-MB-231 breast = test system: MDA-MB-231 breast
MCF7 breast = test system: MCF7 breast
SK-MEL-28 melanoma = test system: SK-MEL-28 melanoma
HCC-2998 colon = test system: HCC-2998 colon
SN12C renal = test system: SN12C renal
HOP-62 NSCLC = test system: HOP-62 NSCLC
NCI-H322M lung = test system: NCI-H322M lung
LOX IMVI melanoma = test system: LOX IMVI melanoma
OVCAR-8 ovarian = test system: OVCAR-8 ovarian
SR leukemia = test system: SR leukemia
UACC-62 melanoma = test system: UACC-62 melanoma
MOLT-4 leukemia = test system: MOLT-4 leukemia
OVCAR-4 ovarian = test system: OVCAR-4 ovarian
DU-145 prostate = test system: DU-145 prostate
SK-MEL-5 melanoma = test system: SK-MEL-5 melanoma
SF-539 CNS = test system: SF-539 CNS
OVCAR-3 ovarian = test system: OVCAR-3 ovarian
RXF 393 renal = test system: RXF 393 renal
MDA-MB-435 = test system: MDA-MB-435
SK-MEL-2 melanoma = test system: SK-MEL-2 melanoma
UACC-257 melanoma = test system: UACC-257 melanoma
HCT-15 colon = test system: HCT-15 colon
ACHN renal = test system: ACHN renal
SNB-19 CNS = test system: SNB-19 CNS
CAKI-1 renal = test system: CAKI-1 renal
M14 melanoma = test system: M14 melanoma
IGROV1 ovarian = test system: IGROV1 ovarian
MDA-N = test system: MDA-N
OVCAR-5 ovarian = test system: OVCAR-5 ovarian
CCRF-CEM leukemia = test system: CCRF-CEM leukemia
K-562 leukemia = test system: K-562 leukemia
A498 renal = test system: A498 renal
HT29 colon = test system: HT29 colon
COLO 205 colon = test system: COLO 205 colon
NCI/ADR-RES ovarian = test system: NCI/ADR-RES ovarian
RPMI-8226 leukemia = test system: RPMI-8226 leukemia
HOP-92 NSCLC = test system: HOP-92 NSCLC
SF-295 CNS = test system: SF-295 CNS
EKVX NSCLC = test system: EKVX NSCLC
NCI-H460 lung = test system: NCI-H460 lung

Structure (SMILES): O=P1(Oc2ccccc2)Cc2cnccc2CN1 (stereo unspecified)
- GI50 (T-47D breast): > 100 µM
- TGI (T-47D breast): > 100 µM
- GI50 (NCI-H226 lung): > 100 µM
- TGI (NCI-H226 lung): > 100 µM
- GI50 (SW-620 colon): > 100 µM
- TGI (SW-620 colon): > 100 µM
- GI50 (HCT-116 colon): > 100 µM
- TGI (HCT-116 colon): > 100 µM
- GI50 (A549 NSCLC): > 100 µM
- TGI (A549 NSCLC): > 100 µM
- GI50 (PC-3 prostate): > 100 µM
- TGI (PC-3 prostate): > 100 µM
- GI50 (U251 CNS): > 100 µM
- TGI (U251 CNS): > 100 µM
- GI50 (UO-31 renal): > 100 µM
- TGI (UO-31 renal): > 100 µM
- GI50 (786-0 renal): > 100 µM
- TGI (786-0 renal): > 100 µM
- GI50 (KM12 colon): > 100 µM
- TGI (KM12 colon): > 100 µM
- GI50 (SNB-75 CNS): > 100 µM
- TGI (SNB-75 CNS): > 100 µM
- GI50 (NCI-H23 lung): > 100 µM
- TGI (NCI-H23 lung): > 100 µM
- GI50 (BT-549 breast): > 100 µM
- TGI (BT-549 breast): > 100 µM
- GI50 (MDA-MB-231 breast): > 100 µM
- TGI (MDA-MB-231 breast): > 100 µM
- GI50 (MCF7 breast): > 100 µM
- TGI (MCF7 breast): > 100 µM
- GI50 (SK-MEL-28 melanoma): > 100 µM
- TGI (SK-MEL-28 melanoma): > 100 µM
- GI50 (HCC-2998 colon): > 100 µM
- TGI (HCC-2998 colon): > 100 µM
- GI50 (SN12C renal): > 100 µM
- TGI (SN12C renal): > 100 µM
- GI50 (HOP-62 NSCLC): > 100 µM
- TGI (HOP-62 NSCLC): > 100 µM
- GI50 (NCI-H322M lung): > 100 µM
- TGI (NCI-H322M lung): > 100 µM
- GI50 (LOX IMVI melanoma): > 100 µM
- TGI (LOX IMVI melanoma): > 100 µM
- GI50 (OVCAR-8 ovarian): > 100 µM
- TGI (OVCAR-8 ovarian): > 100 µM
- GI50 (SR leukemia): > 100 µM
- TGI (SR leukemia): > 100 µM
- GI50 (UACC-62 melanoma): > 100 µM
- TGI (UACC-62 melanoma): > 100 µM
- GI50 (MOLT-4 leukemia): > 100 µM
- TGI (MOLT-4 leukemia): > 100 µM
- GI50 (OVCAR-4 ovarian): > 100 µM
- TGI (OVCAR-4 ovarian): > 100 µM
- GI50 (DU-145 prostate): > 100 µM
- TGI (DU-145 prostate): > 100 µM
- GI50 (SK-MEL-5 melanoma): > 100 µM
- TGI (SK-MEL-5 melanoma): > 100 µM
- GI50 (SF-539 CNS): > 100 µM
- TGI (SF-539 CNS): > 100 µM
- GI50 (OVCAR-3 ovarian): > 100 µM
- TGI (OVCAR-3 ovarian): > 100 µM
- GI50 (RXF 393 renal): > 100 µM
- TGI (RXF 393 renal): > 100 µM
- GI50 (MDA-MB-435): > 100 µM
- TGI (MDA-MB-435): > 100 µM
- GI50 (SK-MEL-2 melanoma): > 100 µM
- TGI (SK-MEL-2 melanoma): > 100 µM
- GI50 (UACC-257 melanoma): > 100 µM
- TGI (UACC-257 melanoma): > 100 µM
- GI50 (HCT-15 colon): > 100 µM
- TGI (HCT-15 colon): > 100 µM
- GI50 (ACHN renal): > 100 µM
- TGI (ACHN renal): > 100 µM
- GI50 (SNB-19 CNS): > 100 µM
- TGI (SNB-19 CNS): > 100 µM
- GI50 (CAKI-1 renal): > 100 µM
- TGI (CAKI-1 renal): > 100 µM
- GI50 (M14 melanoma): > 100 µM
- TGI (M14 melanoma): > 100 µM
- GI50 (IGROV1 ovarian): > 100 µM
- TGI (IGROV1 ovarian): > 100 µM
- GI50 (MDA-N): > 100 µM
- TGI (MDA-N): > 100 µM
- GI50 (OVCAR-5 ovarian): > 100 µM
- TGI (OVCAR-5 ovarian): > 100 µM
- GI50 (CCRF-CEM leukemia): > 100 µM
- TGI (CCRF-CEM leukemia): > 100 µM
- GI50 (K-562 leukemia): > 100 µM
- TGI (K-562 leukemia): > 100 µM
- GI50 (A498 renal): > 100 µM
- TGI (A498 renal): > 100 µM
- GI50 (HT29 colon): > 100 µM
- TGI (HT29 colon): > 100 µM
- GI50 (COLO 205 colon): > 100 µM
- TGI (COLO 205 colon): > 100 µM
- GI50 (NCI/ADR-RES ovarian): > 100 µM
- TGI (NCI/ADR-RES ovarian): > 100 µM
- GI50 (RPMI-8226 leukemia): > 100 µM
- TGI (RPMI-8226 leukemia): > 100 µM
- GI50 (HOP-92 NSCLC): > 100 µM
- TGI (HOP-92 NSCLC): > 100 µM
- GI50 (SF-295 CNS): > 100 µM
- TGI (SF-295 CNS): > 100 µM
- GI50 (EKVX NSCLC): > 100 µM
- TGI (EKVX NSCLC): > 100 µM
- GI50 (NCI-H460 lung): > 100 µM
- TGI (NCI-H460 lung): > 100 µM
